The values below are quoted from earlier work in patent publication US20110014255A1, “PHYTOSANITARY FORMULATION GENERATING NANOPARTICLES, METHOD FOR PREPARING NANOPARTICLES AND USE THEREOF” (priority 2006, published 2011).

The conditions of the data set: % by weight.

Regarding `CCCCOP(=O)(OCCCC)OCCCC`, the miscibility in water is 0.04%.
